Columns and labels:
Hst2 [1] = target: T1, Hst2 (Saccharomyces cerevisiae, UniProt P53686); test: Competition assay (inhibition mode versus NAD+ and acetyl-lysine substrate); format: biochemical
Protocol: Competition Assay. […] The fluorigenic assay described above was used with a fixed enzyme concentration of 1 μM. When competition with NAD^+ was being tested, the FLUOR DE LYS-SIRT1 deacetylase substrate was held at a constant concentration of 100 μM and the NAD^+ was titrated from ⅓-5× KmNAD+ (5-80 μM). When competition with the FLUOR DE LYS-SIRT1 deacetylase substrate was being tested, the NAD^+ concentration was held constant at 160 μM and the FLUOR DE LYS-SIRT1 deacetylase substrate was titrated from ⅓-5× the Kmacetyl-lysine (3-50 μM). The inhibitors were titrated from ˜½-several times their estimated Ki as indicated. The reaction time was 15 minutes, and each condition was tested in duplicate. The Km, kcat and kcat/Km values were determined by direct fit of the data in SIGMAPLOT (Systat Software, Point Richmond, Calif.) to the Michealis-Menten equation. The Ki and Kis (the slope and intercept inhibition constants, respectively) and the competition type were also determined by a direct fit in SIGMAPLOT to both partial and full competitive, noncompetitive, uncompetitive and mixed competition models. Best-fit models were determined by several statistical methods including R^2, AICs and Sy.x as well as empirical evaluation of α and β values. […]

Protein sequences, listed by entry. Tags and fused reporters are not part of them. Residues count along the entry.
UniProt P53686, 1-294: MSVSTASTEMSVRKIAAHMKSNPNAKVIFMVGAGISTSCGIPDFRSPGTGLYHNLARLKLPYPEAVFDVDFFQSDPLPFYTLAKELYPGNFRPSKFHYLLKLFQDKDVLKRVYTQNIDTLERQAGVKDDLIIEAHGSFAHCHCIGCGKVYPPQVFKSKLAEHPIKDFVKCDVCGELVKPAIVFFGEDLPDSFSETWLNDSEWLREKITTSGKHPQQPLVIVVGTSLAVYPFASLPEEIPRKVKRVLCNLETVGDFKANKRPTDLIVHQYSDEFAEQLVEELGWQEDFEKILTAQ

Hst2 [2] = target: T1, Hst2; test: IC50 determination, fluorigenic deacetylase assay, Hst2
Hst2 [3] = target: T1, Hst2; test: SAR analysis, fluorigenic assay at 50 and 500 μM; format: biochemical; conditions: Table 7, 50 μM compound, relative to control
Source text: Structure Activity Relationship (SAR) Analysis.

full-length human SIRT1 = target: T2, full-length human SIRT1 (Homo sapiens, UniProt Q96EB6); test: IC50 determination, fluorigenic deacetylase assay, FL SIRT1; conditions: read-out: SIRT1 IC50; Table 5; 240 μM NAD+, 200 μM substrate, 1 μM FL SIRT1, 15 min
T2 sequence (Q96EB6 1-747): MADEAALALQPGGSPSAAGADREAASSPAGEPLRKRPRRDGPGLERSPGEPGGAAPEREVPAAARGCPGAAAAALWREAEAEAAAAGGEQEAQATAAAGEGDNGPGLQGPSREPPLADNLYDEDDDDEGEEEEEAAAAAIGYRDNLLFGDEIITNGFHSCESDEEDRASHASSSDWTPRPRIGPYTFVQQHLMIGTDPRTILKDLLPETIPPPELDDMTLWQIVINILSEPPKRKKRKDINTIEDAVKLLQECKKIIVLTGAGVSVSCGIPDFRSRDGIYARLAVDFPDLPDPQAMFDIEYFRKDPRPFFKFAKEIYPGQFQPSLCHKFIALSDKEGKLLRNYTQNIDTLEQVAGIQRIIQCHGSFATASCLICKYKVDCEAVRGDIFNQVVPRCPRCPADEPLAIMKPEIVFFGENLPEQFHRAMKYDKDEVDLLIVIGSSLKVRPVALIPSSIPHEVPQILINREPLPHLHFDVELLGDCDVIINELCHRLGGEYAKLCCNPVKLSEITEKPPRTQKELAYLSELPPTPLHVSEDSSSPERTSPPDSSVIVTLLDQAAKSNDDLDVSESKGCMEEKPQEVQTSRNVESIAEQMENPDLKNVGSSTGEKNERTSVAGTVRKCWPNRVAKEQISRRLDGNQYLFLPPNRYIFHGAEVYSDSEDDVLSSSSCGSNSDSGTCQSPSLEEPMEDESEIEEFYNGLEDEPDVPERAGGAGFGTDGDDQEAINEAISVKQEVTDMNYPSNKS

COCC#CC1c2cc(O)c(OC)cc2CCN1C (stereo not shown) [Compound 15a, 6-Methoxy-1-(3-methoxy-prop-1-ynyl)-2-methyl-1,2,3,4-tetrahydro-isoquinolin-7-ol]
Ki (Hst2 [1]; substrate NAD+ varied): 42 ± 17 µM
Ki (Hst2 [1]; substrate acetyl-lysine varied): 43 ± 8 µM
IC50 values (range in words) (Hst2 [2]): mid-micromolar range
IC50 (Hst2 [2]; read-out: Hst2 IC50, Table 5, 160 μM NAD+, 100 μM substrate, 1 μM Hst2, 15 min): 130 ± 4 µM
activity at 50 µM (Hst2 [3]): 76%

O=C1CCc2c(ccc3ccccc23)O1 [Splitomycin (3), Splitomycin, reference compound]
IC50 (full-length human SIRT1): > 500 µM

Cn1cc(C2=C(c3cn(CCCSC(=N)N)c4ccccc34)C(=O)NC2=O)c2ccccc21 [Ro 31-8220 (6), Ro 31-8220, reference compound]
IC50 (full-length human SIRT1): 25 ± 7 µM

— US20090326007A1, “Compounds and methods for modulating sir2 protein activity” (priority 2007, published 2009)
